From US20060210570A1

Molecular target: prostasin (recombinant human, soluble, active two-chain form purified from conditioned medium of CHO cells transfected with full-length prostasin) (human) (UniProt Q16651)
Assay: cell-based or functional assay

IC50, inhibition of prostasin amidolytic activity towards S2765: 1.2 nM
Substance: aprotinin (from UniProt P00974 36-93)
